Results on one substance are retold here after article PMC12347602.

Sequences of proteins named here, by UniProt entry; tags and fusion partners are left off. Residues count along the entry.
UniProt P37173, 23-166: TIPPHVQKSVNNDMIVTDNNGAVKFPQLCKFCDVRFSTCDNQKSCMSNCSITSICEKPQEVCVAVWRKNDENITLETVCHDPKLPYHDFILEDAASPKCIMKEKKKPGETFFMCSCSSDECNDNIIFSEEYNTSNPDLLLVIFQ

The test concerns the target recombinant mTGF-β1 (mouse). The experiment in a line: ELISA; indirect ELISA; mTGF-β1 coated at 0.2 µg/mL overnight at 4 °C; serial dilutions of sample 1 h at 37 °C; detection with goat anti-human IgG Fc-HRP. Background: ELISA stands for enzyme-linked immunosorbent assay.

For orientation: EC50 means the concentration at which the effect is half-maximal. For “soluble TGF-β receptor II (TGF-βRII) (from UniProt P37173 23-166)”, the EC50 came to 0.0619 nM.
